# Results: paper doi:10.1101/2024.11.06.622220v2 (biorxiv, 2024)
# System: JaPAL
structure (smiles),measurement,value
N[C@@H](Cc1ccc(O)cc1)C(=O)O [Tyr],Km,17.5 µM
